Results on two compounds are retold here after patent publication US20260176249A1, “PROTEIN KINASE INHIBITOR, PREPARATION METHOD THEREFOR, AND APPLICATION THEREOF” (SHANDONG LUYE PHARMACEUTICAL CO., LTD., priority 2021, published 2026).

Data set [1] concerns HCT116 cells. Nature of the data set: Inhibitory activity on HCT116 cell proliferation (ATPlite). The data set is classed as cell-based. The conditions noted are these: Homo sapiens, HCT-116, 72 h. The method, then: Cell culture medium: RPMI1640+10% FBS (GBICO)
Cell culture plate: 96-well plate (Shanghai Jingan Biotechnology Co., Ltd.)
Detection kit: ATPlite 1step Luminescence (PerkinElmer)
Detection instrument: BioTek multifunctional microplate reader
2. Test method: HCT116 cells in the logarithmic growth phase were seeded into a white-wall clear-bottom 96-well plate at a density of 720 cells per well, and cultured overnight in a 37° C., 5% CO2 incubator. […] After adding the drug, culturing was continued for 72 h in a 37° C., 5% CO2 incubator.
GraphPad Prism 7.0 was used to process the data, the cell inhibition rate curve was obtained and IC50 was calculated.
Background: In ATP-based viability assays light output follows the ATP content of the culture.

A short description of data set [2]: Permeability and efflux transporter substrate evaluation in Caco-2 cells. The data set is classed as in vitro ADME. More on the design: dose or concentration left out as unconfirmed. The conditions noted are these: human, Caco-2, pH 7.4. The method, then:
The cells were cultured in a carbon dioxide incubator for 21-28 days before being used for transport experiments. During this period, the culture medium was changed every four to five days.
This project uses Hank's balanced salt buffer (pH 7.40±0.05) containing 10 mM HEPES as the transport buffer. The culture medium was removed from the culture plate and the cells were washed twice with preheated transport buffer (approximately 75 μL and 40 mL of transport buffer for each apical well and basolateral receiver plate respectively). The donor solution and receiver solution were added to the corresponding cell plate wells (75 and 250 μL for each apical and basolateral well respectively), and the bidirectional transport experiment was started (apical to basolateral (A-B) and basolateral to apical (B-A)). The test concentration of the test substance was […], and two replicate wells were made for each dosing concentration. […]
All samples were vortexed, and then centrifuged at 3220×g for 20 min at 20° C. A proper volume of supernatant was transferred to a sample assay plate, and the sample was stored at 2-8° C. if it was not analyzed immediately after the plate was sealed, and LC MS/MS method was used for analysis. […]
[formula] • RFUApical and RFUBasolateral are the relative fluorescence intensity of lucifer yellow at the apical and basolateral sides respectively. […]

In data set [3] the test system is HCT116 cells. Put plainly: In vivo pharmacodynamic study of compound 18 in HCT116 tumor-bearing mice. The conditions noted are these: 7 days. On the set-up: species or system Balb/C Nude mice. As for the experimental part: a. Establishment of tumor-bearing mouse model: HCT116 cells in the logarithmic growth phase were taken and cultured, the cells were collected and counted, and then subcutaneously inoculated into Balb/C Nude mice at 1×10^6/mouse. The tumor volume and body weight of the mice were measured regularly. 7 days after inoculation, mice with tumor volume of 150 mm3 were randomly divided into groups and treated with corresponding drugs.
3. Data processing: All data were organized in EXCEL, and One-way ANOVA analysis and drawing were performed using GraphPad Prism 8.0 software. Statistical significance was achieved when p<0.05.
1. Experiment materials: Same as Test example 5.
a. Establishment of tumor-bearing mouse model: Same as Test example 5.
b. […] The administration was performed once a day by gavage for 7 consecutive days, and the tumor volume and body weight of the mice were measured regularly.
3. Data processing: Same as Test example 5.

The mark [4] stands for this setting: read-out: half inhibitory concentration.

Structures are written as SMILES. Like-named read-outs stand apart in the source and are kept apart here.

In the case of `CN1CCN(c2ccc(OC(F)(F)F)c(Nc3ncc4ccc5c(C(N)=O)nn(CCO)c5c4n3)c2)CC1` [Compound 1], the IC50 in data set [1] and in data set [1] (setting [4]) was 51 nM in each case.

As usually defined, the efflux ratio is the permeability from basolateral to apical divided by that in the opposite direction, in the common usage. For the compound `CN1CCN(c2ccc(OC(F)(F)F)c(Nc3ncc4ccc5c(C(N)=O)nn(CCF)c5c4n3)c2)CC1` [Compound 18], the IC50 in data set [1] and in data set [1] (setting [4]) was 5 nM throughout. In addition, the efflux ratio at 120 min in data set [2] was determined as 1.65. Moreover, the “required dose relative to control drug onvansertib to achieve the same efficacy” value in data set [3] is “approximately ⅙”.
